## Binding of CDR-mutated scFvs to a peptide of the spike HR2 region

Antigen: PDVDLGDISGINAS, a 14-residue peptide of the SARS-CoV-2 spike HR2 region.

Parent scFv Ab-14: VH joined to VL by the linker GGGGSGGGGSGGGGS. Changes lie in the heavy chain CDRs alone.
VH: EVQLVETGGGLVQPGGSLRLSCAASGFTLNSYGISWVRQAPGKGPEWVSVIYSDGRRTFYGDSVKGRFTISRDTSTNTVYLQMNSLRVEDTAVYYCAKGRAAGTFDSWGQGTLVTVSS
VL: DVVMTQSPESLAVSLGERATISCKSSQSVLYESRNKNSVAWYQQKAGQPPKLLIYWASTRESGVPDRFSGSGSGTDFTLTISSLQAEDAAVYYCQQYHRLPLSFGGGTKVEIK

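In library AAYL49, one, two or three CDR residues were substituted; doubles and triples were drawn at random. In AlphaSeq, yeast of one mating type display the scFv and yeast of the other type display the target. Pairs that bind mate more often; barcode pairs of the diploids are counted by sequencing. Read counts were normalised to the haploid input and turned into Kd by a linear fit to BCL2-family pairs of known affinity, for each replicate. Each pool was mated in three replicate cultures.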

Each variant is given by its three heavy chain CDRs, as the data file delimits them; those of the parent are GFTLNSYGIS, VIYSDGRRTFYGDSVK, GRAAGTFDS.
Scale: log10 of Kd in nM, estimated from mating counts; low values are strong binders.
Averages over replicates are reported, and they cover detected replicates only.
"not detected" means that the variant was in the library but no mating with the target was seen in any replicate; the authors take this as a sign of poor binding, and no number exists.

mean log10 Kd (nM)	replicates with signal	CDR-H1	CDR-H2	CDR-H3
not detected	0 of 3	GFTLNSYGIS	VICSDGRRTFYNDSVK	GRAAGTFNS
5.37	2 of 3	GFTLNSYGIS	VIYSDGRRTFYGDMVC	GRAAGTADS
not detected	0 of 3	GFTLNSYGIS	VIWSDGQRTFYGDSVK	GRAASTFDS
3.95	1 of 3	GFTLNSYGIS	VIYSDGRRTFYGDSVD	ERAAGTFDQ
4.39	1 of 3	GFTLNSYGIS	VIYSDGRRLFYGDSVK	GPAAKTFDS
not detected	0 of 3	GFWLNSYGIS	VIYSDGRGGFYGDSVK	GRAAGTFDS
not detected	0 of 3	GFTQNSYGIS	VIQSDGRRTFYGDSVK	GRAAGTFDS
not detected	0 of 3	GFTLNSPGIQ	VIYSDGRRTFYGDSVK	GRAAGTFDS
4.21	2 of 3	GFTLNSYGIS	VIYKDGRRTFYGDSVK	GRAAGTFDP
not detected	0 of 3	GFTLNSYGIS	VIYSDMRRTFYGDSVK	GRAAGNFDF
not detected	0 of 3	GFTLNSYGIS	VIYSRGRWWFYGDSVK	GRAAGTFDS
4.10	2 of 3	EFTLNSYGIS	SIYDDGRRTFYGDSVK	GRAAGTFDS
not detected	0 of 3	GLTLNSYGIS	VIYSDGRRTFYGDSVK	GPAAGNFDS
not detected	0 of 3	GFTLNSWYIS	VIYTDGRRTFYGDSVK	GRAAGTFDS
not detected	0 of 3	GFTLNSYGIS	VIYSNGRRTFYGDSDK	ARAAGTFDS
3.01	1 of 3	GFTLNSVGIS	VISSDGRRTFYGDSVK	GRAAFTFDS
not detected	0 of 3	GFTLNSYGIS	VIYSDGRWTFYGDSVK	GRAAHTIDS
not detected	0 of 3	GFTLNSYGSS	VIYNDGRRTFYGDCVK	GRAAGTFDS
not detected	0 of 3	GFTLNSYGIS	WIYSDGRRTFYKDSVK	GRAAGKFDS
3.22	1 of 3	GFTLNSYGIS	SIGSDGRRTFYGDSVK	GRAAGRFDS
not detected	0 of 3	GFTLNSYGIS	LIYSDGRRFFYGLSVK	GRAAGTFDS
3.89	3 of 3	GFTLNSYEIS	VIHSDGRRTFYGDSVK	GSAAGTFDS
not detected	0 of 3	GFTLNCYCIS	VIYSDGRRTFYGASVK	GRAAGTFDS
not detected	0 of 3	GFHLNSYGIS	VIYSDGRRTFYGDSVH	GRAAGTFDE
0.60	3 of 3	GFTLNSYGIS	VIYSDGRRTFYADSVK	GLAAGTFDK
3.82	2 of 3	GFTLNSYGIS	VIYSDGRRDFYGDSVQ	GRAAGTFDS
2.72	3 of 3	GFTLNSYGIS	VIYSDGRRTCYGDSVK	GRAAGTFGS
not detected	0 of 3	GFTLNSLGIS	VQYSDGRRTFYGDSRK	GRAAGTFDS
0.98	3 of 3	GFTLGSYGIS	VIYSDGRRTFYGESVK	GKAAGTFDS
4.24	3 of 3	GFTLNSYYIS	VIYSDERRTFYPDSVK	GRAAGTFDS
4.29	1 of 3	GFTLNSYGIS	VIYSNGRRTFYGDSTK	GRAAFTFDS
4.40	1 of 3	GFTLNSYGIS	VIYSDGRRTFYGDSIC	GRADGTFDS
not detected	0 of 3	GFTLNSYGIS	VICSDGRRTFYGDSVK	GRYAGRFDS
3.67	1 of 3	GFTLNCYGIS	VIYSDGRRTFYGDSVK	GRAALAFDS
not detected	0 of 3	GFTLNSYGIS	VIYNDGRRTFYGDSVK	TRAAGTPDS
4.44	1 of 3	GFTLNSYGIF	VIYSDQHRTFYGDSVK	GRAAGTFDS
not detected	0 of 3	GFTLNSYGIS	VIYSDGRCTCYGDSVK	GRAAGTFDN
4.58	1 of 3	GFTLKSYGIF	VSYSDGRRTFYGDSVK	GRAAGTFDS
3.99	1 of 3	GFTLNSYGIS	VIYPDGRRTFYGDSPK	GIAAGTFDS
0.61	3 of 3	GFTLNSYGIS	VIYSDGRRTFYLDSVR	GRAAGHFDS
not detected	0 of 3	GFTLNSYGIS	VIYSDGRRTFYGDSVG	GRPAWTFDS
2.95	1 of 3	GFTLNDYGIS	VIYSDGRRELYGDSVK	GRAAGTFDS
4.37	2 of 3	GFTLNSYGIS	VIYSDGRRMFDGDSVK	GRMAGTFDS
not detected	0 of 3	GFSLTSYGIS	VIYSDGRRTFYGDSVK	GRAAGTFIS
4.15	1 of 3	GFTLNSYGCS	VIYSDGRRTFYGDSVK	YRAAGTNDS
not detected	0 of 3	GFTLNSYGPS	VIYSDGKRTFYGDSVK	GRAAGTDDS
4.77	3 of 3	GFTLNSYGIS	VKYSDGRRTFYGDSVK	ERAAGTFDG
not detected	0 of 3	GFTLRSYGIS	VIYSDDRRWFYGDSVK	GRAAGTFDS
0.92	3 of 3	GFTLNSYGIS	VIYSDGFRTFYGDSVK	GRTAGTFDI
not detected	0 of 3	GFTLESYGIS	VIYSDGQRTFYGDSVK	GVAAGTFDS
1.79	3 of 3	GFTLNSYGIS	VIYSDGRRTFYGDSVK	GRAGQGFDS
4.89	2 of 3	GHTLNSYGIS	VRYSDGRRTFYGDSVK	GRAAGTFDS
4.25	2 of 3	GFTLNSYGID	LIYSDGRRTFYGDSVK	ARAAGTFDS
not detected	0 of 3	GFTLNSYGIS	VIYSDGRRTPYGDSIK	GRAAGTDDS
3.37	1 of 3	GTTLNSYGIS	VIYSVGRYTFYGDSVK	GRAAGTFDS
3.84	1 of 3	GFTLNSYPIS	VIYWDGRRTFYGDSVK	GFAAGTFDS
2.71	3 of 3	EFTLNSYGIS	VVYSDGRRTFYGDSVK	GRAAGTFDS
not detected	0 of 3	HFMLNSYGIS	VIWSDGRRTFYGDSVK	GRAAGTFDS
3.19	1 of 3	GFTLNSYGTS	VIYSDGRRTFYRDSVK	GRAAGTFDS
2.34	1 of 3	GITLNSLGIS	VIYSDARRTFYGDSVK	GRAAGTFDS
3.27	1 of 3	GFTLNTYGIS	VIYSDGRRCFYGDSTK	GRAAGTFDS
not detected	0 of 3	GFTLNSYGIS	VIYSWGRRTFYGDSVK	GKAAGTFYS
4.37	2 of 3	GFTYNSWGIS	VIYSDGRRTFYGDSVV	GRAAGTFDS
3.85	1 of 3	GETLNSYGIS	VILSDGRRTFYGDSVK	GRAAGTFDS
3.91	2 of 3	GFTLNSYGIS	PIYSDGRRTGYGDMVK	GRAAGTFDS
5.71	1 of 3	GFTLNSYGIS	VIYSDGWRTFYDDSVK	SRAAGTFDS
3.69	1 of 3	GFNCNSYGIS	VIYSDCRRTFYGDSVK	GRAAGTFDS
3.86	1 of 3	GFTLNSQGSS	VIYSRGRRTFYGDSVK	GRAAGTFDS
4.75	1 of 3	GFTLNSYGIS	VIYSDGRRTFYGRCVK	VRAAGTFDS
3.93	2 of 3	GFTLNSYPIS	VIYSDGRETFYGDSVD	GRAAGTFDS

Top 9 of the variants detected in all replicates, tightest first:

{"CDR-H1": "GFTLNSYGIS", "CDR-H2": "VIYSDGRRTFYADSVK", "CDR-H3": "GLAAGTFDK", "mean log10 Kd (nM)": "0.60", "replicates with signal": "3 of 3"}
{"CDR-H1": "GFTLNSYGIS", "CDR-H2": "VIYSDGRRTFYLDSVR", "CDR-H3": "GRAAGHFDS", "mean log10 Kd (nM)": "0.61", "replicates with signal": "3 of 3"}
{"CDR-H1": "GFTLNSYGIS", "CDR-H2": "VIYSDGFRTFYGDSVK", "CDR-H3": "GRTAGTFDI", "mean log10 Kd (nM)": "0.92", "replicates with signal": "3 of 3"}
{"CDR-H1": "GFTLGSYGIS", "CDR-H2": "VIYSDGRRTFYGESVK", "CDR-H3": "GKAAGTFDS", "mean log10 Kd (nM)": "0.98", "replicates with signal": "3 of 3"}
{"CDR-H1": "GFTLNSYGIS", "CDR-H2": "VIYSDGRRTFYGDSVK", "CDR-H3": "GRAGQGFDS", "mean log10 Kd (nM)": "1.79", "replicates with signal": "3 of 3"}
{"CDR-H1": "EFTLNSYGIS", "CDR-H2": "VVYSDGRRTFYGDSVK", "CDR-H3": "GRAAGTFDS", "mean log10 Kd (nM)": "2.71", "replicates with signal": "3 of 3"}
{"CDR-H1": "GFTLNSYGIS", "CDR-H2": "VIYSDGRRTCYGDSVK", "CDR-H3": "GRAAGTFGS", "mean log10 Kd (nM)": "2.72", "replicates with signal": "3 of 3"}
{"CDR-H1": "GFTLNSYEIS", "CDR-H2": "VIHSDGRRTFYGDSVK", "CDR-H3": "GSAAGTFDS", "mean log10 Kd (nM)": "3.89", "replicates with signal": "3 of 3"}
{"CDR-H1": "GFTLNSYYIS", "CDR-H2": "VIYSDERRTFYPDSVK", "CDR-H3": "GRAAGTFDS", "mean log10 Kd (nM)": "4.24", "replicates with signal": "3 of 3"}

Empty control strains, which show no peptide, gave a signal in 15% of pairings with library AAYL49; the median was 4.06 and 95% of these signals were weaker than 2.83. No background was subtracted.

Source: Engelhart et al. 2022 (doi:10.1038/s41597-022-01779-4), MIT Lincoln Laboratory and A-Alpha Bio; data file from the FLAb repository.